Laboratory results reported in patent US20190093079A1, “METHODS FOR CONTROLLED PROLIFERATION OF STEM CELLS / GENERATING INNER EAR HAIR CELLS USING GSK-3-ALPHA INHIBITORS” (Frequency Therapeutics, Inc., priority 2016, published 2019).

Sequences of proteins named here, by UniProt entry; tags and fusion partners are left off.
UniProt P49840, whole entry: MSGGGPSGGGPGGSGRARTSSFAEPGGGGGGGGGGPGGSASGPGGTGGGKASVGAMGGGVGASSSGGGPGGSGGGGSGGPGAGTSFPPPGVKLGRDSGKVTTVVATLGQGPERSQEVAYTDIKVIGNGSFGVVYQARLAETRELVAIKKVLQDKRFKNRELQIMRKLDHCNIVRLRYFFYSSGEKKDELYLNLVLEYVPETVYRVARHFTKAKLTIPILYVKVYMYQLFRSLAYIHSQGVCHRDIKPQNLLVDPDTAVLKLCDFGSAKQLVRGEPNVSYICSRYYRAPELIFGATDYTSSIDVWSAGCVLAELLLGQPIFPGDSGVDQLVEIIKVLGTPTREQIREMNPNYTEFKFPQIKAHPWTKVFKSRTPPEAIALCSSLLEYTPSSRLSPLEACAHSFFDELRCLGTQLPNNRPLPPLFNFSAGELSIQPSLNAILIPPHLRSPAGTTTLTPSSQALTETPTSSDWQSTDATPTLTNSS
UniProt P49841, whole entry: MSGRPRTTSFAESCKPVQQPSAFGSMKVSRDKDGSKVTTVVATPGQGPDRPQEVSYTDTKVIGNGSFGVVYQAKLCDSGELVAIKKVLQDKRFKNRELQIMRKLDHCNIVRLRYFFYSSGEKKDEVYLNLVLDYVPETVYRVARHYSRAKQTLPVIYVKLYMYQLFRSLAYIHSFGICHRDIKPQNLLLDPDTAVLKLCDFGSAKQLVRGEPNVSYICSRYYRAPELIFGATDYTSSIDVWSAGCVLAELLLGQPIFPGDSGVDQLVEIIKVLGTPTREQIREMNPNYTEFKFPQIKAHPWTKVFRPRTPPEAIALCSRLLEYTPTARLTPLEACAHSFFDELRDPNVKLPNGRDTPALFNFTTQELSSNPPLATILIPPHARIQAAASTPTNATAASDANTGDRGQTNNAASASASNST

Assays:
GSK3-alpha [1] = biological target: T1, GSK3-alpha (Homo sapiens, UniProt P49840); experiment: GSK3-alpha potency (IC50), kinase assay; type: biochemical; settings: GSK3-alpha/GSK3-beta selectivity ratio = IC50 GSK3-beta divided by IC50 GSK3-alpha
GSK3-alpha [2] = biological target: T1, GSK3-alpha; settings: read-out: Potency in nM GSK3-alpha, literature values; cited from earlier work
GSK3-beta = GSK3-beta (Homo sapiens, UniProt P49841); settings: read-out: Potency in nM GSK3-beta, literature values; cited from earlier work

For `CC1(C)CC(=O)C2=C(C1)Nc1n[nH]c(C(F)(F)F)c1[C@]2(C)c1ccccc1`, the “Ratio of Alpha to Beta” value (GSK3-alpha [1]) is given as 10, the IC50 (GSK3-alpha [2]) is given as 0.4 nM and the IC50 (GSK3-beta) is given as 4 nM.
